Laboratory results from article PMC8957250 (ADMET & DMPK, 2019).

How the values were obtained:
[1] = in vitro; conditions: rat, pH 7.4
[2] = Rat (0.25 kg), Experimental; rat plasma incubation, Lineweaver-Burke plot

CCOC(=O)C1=C[C@@H](OC(CC)CC)[C@H](NC(C)=O)[C@@H](N)C1 [OP, oseltamivir phosphate]
Km at 1 h [1]: 300 µg/mL
Vmax of OP metabolism [2]: 61.2 mg/h
